Data: PubChem BioAssay AID602283 (Johns Hopkins Ion Channel Center, 2012)
The entries are a selection whose mix differs from that of the whole data set. Active and inactive are the calls of the source.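 The calls were made as follows: active = inhibition exceeding 3 SD of buffer-only control wells (cut at about 26% in these data); inactive = the rest.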

assay: M3R calcium signalling without RGS4 expression – cell-based, HEK293 M3R, non-induced RGS4, Fluo-4 calcium, counter-screen for RGS4 activator project, primary screen (AID 602283); details: HEK293 M3R non-induced RGS4, Fluo4 calcium flux; at 10 µM; hits give high values; after carbachol challenge at its EC90;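 also: percent drop in integrated peak-minus-baseline over baseline Fluo4 ratio after carbachol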

Q: For `COc1cc(C(=O)NCC2(N3CCCCC3)CCCCC2)ccc1OC(F)F`, which inhibition is on record?
A: inactive: 0%

Q: With `CCOc1ccc(C)cc1CN(CCCl)CCCl` as the molecule, how does the inhibition read?
A: active: 94.3%

Q: With `O=C(OC1CN2CCC1CC2)C1c2ccccc2C=Cc2ccccc21` (stereo not drawn) as the molecule, how does the inhibition read?
A: active: 91.8%
